The numbers were not newly measured in patent publication US20210000933A1, “TUMOR VACCINE” (CELL-MEDICINE, INC., priority 2019, published 2021), which cites them from elsewhere.

For this data set, the system named is newly diagnosed glioblastoma.

B1: interferon beta: interferon beta additionally used in the standard therapy in the JCOG0911 INTEGRA study (protein, UniProt P01574 22-187, looked up)
Interferon beta: MSYNLLGFLQRSSNFQCQKLLWQLNGRLEYCLKDRMNFDIPEEIKQLQQFQKEDAALTIYEMLQNIFAIFRQDSSSTGWNETIVENLLANVYHQINHLKTVLEEKLEKEDFTRGKLMSSLHLKRYYGRILHYLKAKEYSHCAWTIVRVEILRNFYFINRLTGYLRN
Consider B1, for which, where the note is “interferon beta administration group (control group 10.1 months)”, the mPFS is reported as 8.5 months. Besides, the mOS (interferon beta administration group (control group 20.3 months)) is reported as 24.0 months.
